AlphaSeq binding of Ab-14 light chain variants to a spike HR2 peptide

Target: peptide PDVDLGDISGINAS, taken from heptad repeat 2 (HR2) of SARS-CoV-2 spike.

Each scFv is VH, three GGGGS repeats, VL, as in the parent Ab-14, and differs from it in the CDRs of the light chain only.
VH: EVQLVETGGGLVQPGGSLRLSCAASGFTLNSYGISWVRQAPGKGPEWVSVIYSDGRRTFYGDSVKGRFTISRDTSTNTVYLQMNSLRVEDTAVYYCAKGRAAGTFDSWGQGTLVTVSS
VL: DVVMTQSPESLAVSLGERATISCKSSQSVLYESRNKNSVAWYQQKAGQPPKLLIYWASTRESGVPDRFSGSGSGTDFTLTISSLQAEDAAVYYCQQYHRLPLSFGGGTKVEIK

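Variants in AAYL50 differ from the parent at up to three CDR positions; double and triple changes were sampled at random. AlphaSeq pools MATa yeast showing the antibodies with MATalpha yeast showing the peptide. The frequency of each diploid, read from paired DNA barcodes, reflects how well the two displayed proteins bind. A regression on co-assayed BCL2-family reference pairs converts the normalised counts of each replicate to an apparent Kd. The assay was run in three technical replicates.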

Substitutions are numbered in sequence along the VL above, starting at 1 (not Kabat).
Every variant below is changed at R60 of the VL (sequential numbering).
Each Kd is an estimate from the mating assay, the geometric mean of the replicates in which the pair was seen; lower is stronger.
An entry "nd" has no value in the source: the pair was not observed among the diploids in any replicate. This suggests poor binding but is not conclusive.
Empty control strains, which show no peptide, gave a signal in 18% of pairings with library AAYL50; the median was 15 µM and 95% of these signals were weaker than 970 nM. No background was subtracted.
Parent in this assay: reference entry 4.4 nM, copy in this library 48 nM.

For R60T+E61V+L102Y, the assay gave 2.5 µM (2 of 3 replicates).
For N35G+R60F+Y97F, the assay gave 4.7 µM (1 of 3 replicates).
For S26C+W56S+R60Y, the assay gave 250 µM (3 of 3 replicates).
For S25F+N35H+R60C, the assay gave 230 nM (3 of 3 replicates).
For V29M+R60H+Q96L, the assay gave 2.2 µM (2 of 3 replicates).
For S25P+R60Y+S62H, the assay gave 5.4 µM (1 of 3 replicates).
For N37V+R60A+H98Y, the assay gave nd (0 of 3 replicates).
For S28Y+R60T+L102E, the assay gave 4.4 µM (2 of 3 replicates).
For W56E+R60G+S103I, the assay gave 33 nM (3 of 3 replicates).
For S33K+R60I+R99Q, the assay gave 6.0 µM (1 of 3 replicates).
For S38H+R60Y+S62M, the assay gave 17 µM (2 of 3 replicates).
For N37P+R60L, the assay gave 710 nM (3 of 3 replicates).
For K36P+R60K+R99Q, the assay gave 25 nM (3 of 3 replicates).
For E32A+R60G+L100Y, the assay gave 360 nM (1 of 3 replicates).
For S25N+A40G+R60T, the assay gave 3.9 µM (1 of 3 replicates).
For N35C+K36Q+R60D, the assay gave 260 µM (1 of 3 replicates).
For V29W+R60Y+Q96T, the assay gave nd (0 of 3 replicates).
For S28D+K36E+R60V, the assay gave 19 nM (3 of 3 replicates).
For S26Y+A57V+R60A, the assay gave nd (0 of 3 replicates).
For S33H+R60Y+R99N, the assay gave nd (0 of 3 replicates).
For V39P+A57S+R60S, the assay gave nd (0 of 3 replicates).
For K24V+T59L+R60F, the assay gave 180 µM (1 of 3 replicates).
For A57W+R60G+E61V, the assay gave 12 µM (1 of 3 replicates).
For K24M+R60Y+R99A, the assay gave nd (0 of 3 replicates).
For S26W+R60L, the assay gave 940 nM (2 of 3 replicates).
For S33R+R60L, the assay gave 140 nM (3 of 3 replicates).
For S38R+R60K+S103T, the assay gave 10 µM (2 of 3 replicates).
For N37L+R60S+L100D, the assay gave nd (0 of 3 replicates).
For L30I+R60M+S62A, the assay gave 3.8 µM (3 of 3 replicates).
For S33L+R60L+S103E, the assay gave 450 nM (3 of 3 replicates).
For S28F+R60T+E61Y, the assay gave nd (0 of 3 replicates).
For S38Q+R60V+Y97E, the assay gave 12 µM (2 of 3 replicates).
For Y31W+A40Q+R60P, the assay gave nd (0 of 3 replicates).
For K24L+R60M+Q95E, the assay gave nd (0 of 3 replicates).
For S26V+N37F+R60D, the assay gave 39 µM (2 of 3 replicates).
For Y31M+T59V+R60N, the assay gave 13 µM (2 of 3 replicates).
For V39L+R60K+R99H, the assay gave 96 nM (3 of 3 replicates).
For K24P+R60H+S103T, the assay gave 18 µM (2 of 3 replicates).
For S28P+R60L+R99G, the assay gave 7.8 nM (3 of 3 replicates).
For S28P+L30K+R60W, the assay gave 50 µM (2 of 3 replicates).

Top 6 of the variants detected in all replicates, tightest first:

| changes | Kd (apparent) | replicates with signal |
|---|---|---|
| S28P+R60L+R99G | 7.8 nM | 3/3 |
| S28D+K36E+R60V | 19 nM | 3/3 |
| K36P+R60K+R99Q | 25 nM | 3/3 |
| W56E+R60G+S103I | 33 nM | 3/3 |
| V39L+R60K+R99H | 96 nM | 3/3 |
| S33R+R60L | 140 nM | 3/3 |

From the AlphaSeq antibody data of Engelhart et al. 2022 (doi:10.1038/s41597-022-01779-4), copy in the FLAb collection.